Screens: PubChem BioAssay, National Center for Advancing Translational Sciences (NCATS)
ERG-DNA inh: inhibitors of human ERG Ets domain-DNA interaction | P11308 | fluorescence polarization, His-ERG Ets domain / labelled DNA | Potency, µM (top dose mostly 76.9 µM), hits mostly inhibitors | 370,000 compounds, 0.028% hits | AID 624246; active means well fitted inhibition curve with a large enough effect in the polarisation, with a control signal flat; inconclusive means small, poorly fitted or top-dose-only effect, or effect the other way, or a change in a side signal; inactive means no such curve, though single readings can be large or run the other way; the % refers to the polarisation;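 further: polarization taken with two DNA probes labelled with fluorescein and Texas red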
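His-tagged ERG Ets domain (1 uM in the protein solution; 300mM KCl, 50mM Tris-HCl, 1mM EDTA, 1mM DTT, pH 7.5) received compound, then a probe mix of 5 nM fluorescein-DNA and 100nM Texas-615-DNA. Fluorescence polarization was read for both dyes.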
Rango-impB inh: prevents formation of the Rango-importin beta complex; Q14974; Rango CFP/YFP FRET sensor + importin beta, 45 min; 340,000 compounds, 0.031% hits; Potency, µM (series often up to 92.2 µM); AID 540263; further: nearly all actives have a fitted effect of over 15% in size
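FRET biosensor (snurportin 1 IBB flanked by EYFP and cerulean), 50 nM, with compound 5 min, then 0.125 microM importin beta in PBS, 1 mM DTT, 0.02% Tween-20, 0.1% BSA. CFP/YFP ratio read after 45 min at room temperature; pre-read flags interference.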
RGS4 inh: blocks human RGS4-accelerated GTP hydrolysis; P49798; Transcreener GDP fluorescence polarization, RGS4-accelerated GTP hydrolysis; Potency, µM (titrated, usually from 114 µM), usual class: inhibitors; 390,000 compounds, 0.039% hits; AID 504845; active means well fitted inhibition curve with a large enough effect; inconclusive means small, poorly fitted or top-dose-only effect; inactive means no such curve, though single readings can be large or run the other way; further: nearly all actives have a fitted effect of over 75% in size
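MLSMR compounds (23 nl, pin-transferred) preincubated 10 min at room temperature with a 500nM (2x) first reagent, then RGS4 at 900nM (2x) plus Transcreener GDP mix added; fluorescence polarization (620/688 nm) read before and after 90 min at 30 °C.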
Rango dissoc inh: inhibition of RanGTP-driven Rango-importin beta dissociation. Potency, µM (highest dose often 46.1 µM). Biochemical FRET Rango-importin beta, RanGTP-induced dissociation. O95149+P62826. 340,000 compounds, 0.071% hits; further: nearly all actives have a fitted effect of over 45% in size
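Quantitative HTS using a FRET biosensor: 0.1 uM Rango, 0.25 uM importin beta, 0.6 uM Ran, 2 mM GTP, 0.2 uM RCC1 final, PBS with DTT, Tween-20 and BSA. Post-read taken 45 min after Ran addition.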
Large screens that a line does not name were inactive; ! = repeats disagree. Only some compounds are listed: those with a hit (about 0.14% of all), similar ones and a draw of the others. Unless noted, the call rests on the fitted dose curve.

O=C(NNc1ccccc1[N+](=O)[O-])Nc1ccc(Cl)c(Cl)c1	none
CCN1/C(=C/c2ccc3cccc(C)c3[n+]2CC)Sc2ccccc21	ERG-DNA inh inconclusive, Rango-impB inh 52µM
CCN1/C(=C/c2ccc3cc(C)cc(C)c3[n+]2CC)Sc2cc(C)ccc21	Rango-impB inh inconclusive, RGS4 inh inconclusive, Rango dissoc inh inconclusive
Cc1cc2c(cc1Cl)N(C(=O)Nc1ccc(Oc3cccnc3C)nc1)CC2	none (no result: ERG-DNA inh, Rango-impB inh, Rango dissoc inh)
Oc1ccc(/C=N/n2c(C3CCCCC3)n[nH]c2=S)c(O)c1	none
Oc1ccc(Br)cc1/C=N/n1c(C2CCCCC2)n[nH]c1=S	Rango-impB inh inconclusive, Rango dissoc inh 15µM
CCN(CC)S(=O)(=O)c1ccc(NC(=O)CSc2nnc3c(n2)[nH]c2ccccc23)cc1	none (no result: ERG-DNA inh, Rango-impB inh, Rango dissoc inh)
COC(=O)c1ccc2nc(Nc3nc4ccc(F)cc4s3)sc2c1	Rango-impB inh inconclusive, Rango dissoc inh 13µM
COc1ccc(-c2cc3ncc(C)n3c(Nc3ncccc3C(N)=O)n2)cc1OC	none (no result: ERG-DNA inh, Rango-impB inh, Rango dissoc inh)
COc1cc(OC)c(NC(=O)CCn2cnc3onc(-c4ccc(F)cc4)c3c2=O)cc1Cl	none (no result: Rango-impB inh, Rango dissoc inh)
CC(C)(C)c1ccc(S(=O)(=O)/C=C/C#N)cc1	RGS4 inh 2.1µM (no result: ERG-DNA inh, Rango-impB inh, Rango dissoc inh)
CC(C)(C)c1ccc(NS(=O)(=O)c2ccc(N)cc2)cc1	none
N[C@@H](Cc1c[nH]c2ccc(O)cc12)C(=O)O	RGS4 inh 24µM!
COc1ccc2[nH]cc(CC(N)C(=O)O)c2c1 (centres undefined)	none (no result: ERG-DNA inh, Rango-impB inh, Rango dissoc inh)
COc1[nH]c(/N=C/c2ccccc2)c(C#N)c1C#N	ERG-DNA inh 32µM, Rango-impB inh inconclusive
CN1C2CC(OC(=O)[C@H](CO)c3ccccc3)CC1C1OC12 (some centres undefined)	none (no result: ERG-DNA inh, Rango-impB inh, Rango dissoc inh)
Cc1cc(C(=O)N/N=C/c2cc(Br)cc(Br)c2OC(=O)c2cccc(F)c2)n[nH]1	Rango-impB inh inconclusive, Rango dissoc inh 3.7µM
COc1cccc(CNC(=O)Cn2c(=O)cc(C)c3c(C)nn(C)c32)c1OC	none (no result: Rango-impB inh, Rango dissoc inh)
O=C(c1ccc2c(=O)n(Cc3ccco3)c(=S)[nH]c2c1)N1CCN(Cc2ccc3c(c2)OCO3)CC1	none (no result: ERG-DNA inh, Rango-impB inh, Rango dissoc inh)
CCN1C=C(Cc2ccccc2C)C2=C(C1)C(c1ccccc1C)C(C#N)=C(N)O2 (centres undefined)	Rango-impB inh inconclusive, Rango dissoc inh 8.2µM
CN1CCc2cc(O)c(O)cc2C(c2ccccc2)C1 (centres undefined)	none
CN1CCc2cc(Cl)c(O)cc2[C@@H](c2ccccc2)C1	RGS4 inh 3µM!
CCN(CC)C(=O)Cn1cc(C(=O)C(=O)N2CCN(C)CC2)c2ccccc21	none
CCN(CC)C(=O)Cn1cc(C(=O)C(=O)N2CC=C(c3ccccc3)CC2)c2ccccc21	Rango-impB inh 37µM
CC1(OC(=O)C2CCCC2)C(=O)C=C2C=C(c3ccsc3)N(C(CO)CO)C=C2C1=O (centres undefined)	ERG-DNA inh 28µM, Rango-impB inh inconclusive
O=C1CCCCC1c1cccc2ccccc12 (centres undefined)	none
O=C1O/C(=C/Br)CCC1c1cccc2ccccc12 (centres undefined)	RGS4 inh 9.5µM (no result: ERG-DNA inh, Rango-impB inh, Rango dissoc inh)
Cc1ccc(Nc2ncnc3nc[nH]c23)cc1	none (no result: ERG-DNA inh, Rango-impB inh, Rango dissoc inh)
O=Cc1c[nH]c2ccccc12	none (no result: ERG-DNA inh, Rango-impB inh, Rango dissoc inh)
O=Cc1c[nH]c2cccc(OCc3ccccc3)c12	Rango-impB inh 58µM
CCOC(=O)c1ccc(NC(=O)N2CCN(C(=O)c3ccco3)CC2)cc1	ERG-DNA inh 35µM
Cn1nc(-c2ccccc2F)c2cc(C(=O)NCCc3ccc(Cl)cc3)sc21	none (no result: Rango-impB inh, Rango dissoc inh)
CCOC(=O)c1ccccc1NC(=O)CSc1cn(CC(=O)N2CCCCCC2)c2ccccc12	none (no result: Rango-impB inh, Rango dissoc inh)
Cc1cc2cc(CNS(=O)(=O)c3ccc4ccccc4c3)ccc2n1C	ERG-DNA inh inconclusive
Cc1cc2cc(CNC(=O)c3ccc(S(=O)(=O)N4CCOCC4)cc3)ccc2n1C	ERG-DNA inh 28µM
Cc1cc2cc(CNC(=S)Nc3ccc(OC(F)(F)F)cc3)ccc2n1C	ERG-DNA inh 20µM, Rango-impB inh inconclusive, Rango dissoc inh inconclusive
Cc1cccc(NC(=O)NCc2ccc3c(c2)cc(C)n3C)c1	ERG-DNA inh inconclusive
CC(=O)Nc1ccc(S(=O)(=O)NCc2ccc3c(c2)cc(C)n3C)cc1	ERG-DNA inh 14µM, Rango-impB inh inconclusive, Rango dissoc inh 23µM
Cc1cccc(NC(=S)NCc2ccc3c(c2)cc(C)n3C)c1C	ERG-DNA inh 28µM
COc1cccc(NC(=S)NCc2ccc3c(c2)cc(C)n3C)c1	ERG-DNA inh inconclusive
